Binding of CDR-mutated scFvs to a peptide of the spike HR2 region

From the AlphaSeq antibody data of Engelhart et al. 2022 (doi:10.1038/s41597-022-01779-4), copy in the FLAb collection.

Binding partner: SARS-CoV-2 spike HR2 peptide, sequence PDVDLGDISGINAS.

Parent: Ab-91, a human scFv built as VL, three GGGGS repeats, VH. Only the CDRs of the heavy chain vary.
VL: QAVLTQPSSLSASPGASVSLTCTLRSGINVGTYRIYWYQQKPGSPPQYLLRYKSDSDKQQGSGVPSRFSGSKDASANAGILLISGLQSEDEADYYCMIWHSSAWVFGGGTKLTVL
VH: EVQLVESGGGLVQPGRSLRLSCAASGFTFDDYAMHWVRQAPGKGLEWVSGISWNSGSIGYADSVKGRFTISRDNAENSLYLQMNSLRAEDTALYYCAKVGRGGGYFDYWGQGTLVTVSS

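Library AAYL51 holds single substitutions and randomly drawn double and triple substitutions in the CDRs. In AlphaSeq, yeast of one mating type display the scFv and yeast of the other type display the target. Mating (16 h, 30 °C) was followed by selection of diploids and sequencing of their barcodes. Read counts were normalised to the haploid input and turned into Kd by a linear fit to BCL2-family pairs of known affinity, for each replicate. Mating was done three times.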

Positions count from residue 1 of the parent VH; M34T puts T in place of M. Affinities are written as log10 Kd with Kd in nM; a lower number is a better binder. A pair that was not seen in that replicate is written "n.d."; this usually means weak binding, but a binder can also be missed. Parent in this assay: reference entry 1.86, copy in this library 0.88. Three control strains display no target. For library AAYL51, 21% of the pairings with them gave a signal, with a median of 4.54 and one signal in twenty below 3.26, so weak values seen in few replicates may be background. Also given: how often the same scFv was detected with the empty control strains, with their mean in brackets.

{"changes": "M34T+K65M+D107W", "log10 Kd (nM) by replicate": "n.d. / n.d. / n.d.", "control signals": "1 of 9 (4.84)"}
{"changes": "S52E+V99H", "log10 Kd (nM) by replicate": "n.d. / 5.12 / n.d.", "control signals": "2 of 9 (3.02)"}
{"changes": "G26V+D31Q+Y60Q", "log10 Kd (nM) by replicate": "5.13 / 6.17 / 5.38", "control signals": "7 of 9 (5.50)"}
{"changes": "G26M+A33Q+S52P", "log10 Kd (nM) by replicate": "n.d. / n.d. / n.d.", "control signals": "0 of 9"}
{"changes": "G103K+Y105W", "log10 Kd (nM) by replicate": "4.54 / 6.50 / n.d.", "control signals": "3 of 9 (4.08)"}
{"changes": "V99C+R101E+F106C", "log10 Kd (nM) by replicate": "n.d. / n.d. / n.d.", "control signals": "1 of 9 (3.84)"}
{"changes": "S52H+S63D+Y105H", "log10 Kd (nM) by replicate": "3.85 / n.d. / n.d.", "control signals": "0 of 9"}
{"changes": "G104K+Y105S+F106V", "log10 Kd (nM) by replicate": "1.00 / 1.02 / 0.47", "control signals": "9 of 9 (4.37)"}
{"changes": "A33Y+I51T+A61I", "log10 Kd (nM) by replicate": "n.d. / 4.76 / 4.89", "control signals": "2 of 9 (4.72)"}
{"changes": "F29D+D31N+S55F", "log10 Kd (nM) by replicate": "n.d. / n.d. / n.d.", "control signals": "0 of 9"}
{"changes": "T28K+S57Q+G103M", "log10 Kd (nM) by replicate": "4.05 / n.d. / n.d.", "control signals": "3 of 9 (3.67)"}
{"changes": "S52F+G56W+Y60H", "log10 Kd (nM) by replicate": "5.25 / 4.03 / 5.68", "control signals": "4 of 9 (5.12)"}
{"changes": "D31T+N54I+I58Q", "log10 Kd (nM) by replicate": "n.d. / n.d. / n.d.", "control signals": "0 of 9"}
{"changes": "G50V+V99C+G103I", "log10 Kd (nM) by replicate": "4.40 / n.d. / n.d.", "control signals": "1 of 9 (3.14)"}
{"changes": "G26F+Y32K+I58G", "log10 Kd (nM) by replicate": "n.d. / n.d. / n.d.", "control signals": "2 of 9 (4.94)"}
{"changes": "H35R+N54D+Y60Q", "log10 Kd (nM) by replicate": "n.d. / n.d. / n.d.", "control signals": "2 of 9 (3.97)"}
{"changes": "W53N+S55I+Y108A", "log10 Kd (nM) by replicate": "n.d. / n.d. / n.d.", "control signals": "1 of 9 (3.77)"}
{"changes": "S55H+G56E+S63L", "log10 Kd (nM) by replicate": "n.d. / n.d. / n.d.", "control signals": "0 of 9"}
{"changes": "F29A+M34F+Y60M", "log10 Kd (nM) by replicate": "4.61 / 4.89 / n.d.", "control signals": "8 of 9 (5.26)"}
{"changes": "T28P+W53V+G59D", "log10 Kd (nM) by replicate": "4.85 / n.d. / n.d.", "control signals": "2 of 9 (4.33)"}
{"changes": "G26F+G59N+V64F", "log10 Kd (nM) by replicate": "4.46 / 4.02 / 5.70", "control signals": "5 of 9 (5.34)"}

The 3 strongest on average among those seen in every replicate, once more:

| changes | log10 Kd (nM) by replicate | control signals |
|---|---|---|
| G104K+Y105S+F106V | 1.00 / 1.02 / 0.47 | 9 of 9 (4.37) |
| G26F+G59N+V64F | 4.46 / 4.02 / 5.70 | 5 of 9 (5.34) |
| S52F+G56W+Y60H | 5.25 / 4.03 / 5.68 | 4 of 9 (5.12) |